Literature values in publication PMC3458435.

Target: CD80 (Homo sapiens) (UniProt P33681)

In the case of CTLA-4 (from UniProt P16410), the Kd is given as 12 nM.
